From patent publication US20150119399A1, “BETA-CELL REPLICATION PROMOTING COMPOUNDS AND METHODS OF THEIR USE” (President and Fellows of Harvard College, priority 2012, published 2015)

Amino acid sequences for entries named in this document (tags omitted). A change or cut given only in a name is not applied to a line headed by its entry.
UniProt Q9HCR9: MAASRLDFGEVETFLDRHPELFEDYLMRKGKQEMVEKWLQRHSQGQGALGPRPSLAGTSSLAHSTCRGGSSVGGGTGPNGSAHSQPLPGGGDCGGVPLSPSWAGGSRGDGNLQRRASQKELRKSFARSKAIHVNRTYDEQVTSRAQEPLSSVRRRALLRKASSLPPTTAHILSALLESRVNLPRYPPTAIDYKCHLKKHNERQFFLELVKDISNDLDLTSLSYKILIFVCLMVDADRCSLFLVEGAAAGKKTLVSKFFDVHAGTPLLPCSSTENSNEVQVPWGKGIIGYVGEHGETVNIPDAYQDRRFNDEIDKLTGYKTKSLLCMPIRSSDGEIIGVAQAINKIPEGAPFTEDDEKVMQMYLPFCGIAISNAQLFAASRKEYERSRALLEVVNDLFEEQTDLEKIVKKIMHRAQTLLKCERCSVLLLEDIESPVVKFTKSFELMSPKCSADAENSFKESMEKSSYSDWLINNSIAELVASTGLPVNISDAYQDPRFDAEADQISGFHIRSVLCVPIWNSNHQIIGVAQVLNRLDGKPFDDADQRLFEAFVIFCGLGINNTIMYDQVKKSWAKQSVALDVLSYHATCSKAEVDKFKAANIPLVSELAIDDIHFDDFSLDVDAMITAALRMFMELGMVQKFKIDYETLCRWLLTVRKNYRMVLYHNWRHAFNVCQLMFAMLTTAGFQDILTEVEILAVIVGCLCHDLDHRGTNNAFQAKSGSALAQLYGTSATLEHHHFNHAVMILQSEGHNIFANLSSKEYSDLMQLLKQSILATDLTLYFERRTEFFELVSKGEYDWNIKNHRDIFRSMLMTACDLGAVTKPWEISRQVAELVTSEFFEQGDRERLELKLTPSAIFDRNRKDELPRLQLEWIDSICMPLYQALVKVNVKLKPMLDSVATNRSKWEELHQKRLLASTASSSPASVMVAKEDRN

Assays:
recombinant PDE5 = recombinant PDE5 (Homo sapiens, UniProt O76074); conditions: in vitro selectivity assay using recombinant PDE
Source text: (§1) Rows list the PDE inhibitors. Columns list the recombinant human PDE enzymes.

recombinant human PDE11A = recombinant human PDE11A (Homo sapiens, UniProt Q9HCR9); conditions: in vitro selectivity assay using recombinant PDE
Source text: as §1

- inhibition of PDE5 (inhibitor class) (recombinant PDE5): potent inhibitors
Compound: CN1CC(=O)N2[C@H](c3ccc4c(c3)OCO4)c3[nH]c4ccccc4c3C[C@@H]2C1=O [Tadalafil, (6R-trans)-6-(1,3-benzodioxol-5-yl)-2,3,6,7,12,12a-hexahydro-2-methyl-pyrazino[1′,2′:1,6]pyrido[3,4-b]indole-1,4-dione]
- inhibition of PDE11A (inhibitor class) (recombinant human PDE11A): potent inhibitor (the agent exhibits at least 75% inhibition of enzymatic activity in an in vitro selectivity assay using a recombinant PDE)
